Molecules are shown by their SMILES. The list shows a part of the results. Measured potencies and affinities stand elsewhere. Some salts and complexes are drawn in separate pieces, as the source files them; their charges need not balance. Active and inactive are the calls of the source.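 How the source made its calls: active means fold induction of absorbance versus untreated yeast above a set limit, then at least 30% activation at any dose in follow-up; inconclusive means repeats straddling the limit, or above it without dose testing; inactive means fold induction below the set limit.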

Results on 81 compounds are retold here after PubChem BioAssay AID1465 (SRMLSC, 2008).

This assay can be described thus: mitochondrial function rescue without frataxin homolog – Friedreich's ataxia, plus single-dose screen, dose response (AID 1465). Particulars: S. cerevisiae Yfh1-off respiration, WST-1 reduction, 72 h; at 50 µM; hits give high values.
For `CP(=S)(Nn1cnnc1)Oc1ccccc1` (stereo unspecified), the fold induction (commonly the ratio of treated to control signal) is inactive: 1.06.
As for `CP(=O)(Nc1ccccc1Br)Oc1ccccc1` (stereo unspecified), the fold induction was inactive: 0.99.
The result for `COc1ccccc1OP(C)(=O)Nc1ccccc1` (stereo unspecified) reads inactive: 1.05.
For `CCOC(=O)c1ccc(NP(C)(=O)Oc2ccc(OC)cc2)cc1` (stereo unspecified) the value was inactive: 0.8; for `CCOP(C)(=S)SCC(=O)NC(C)C(=O)O` (stereo unspecified), inactive: 1.1.
On to `CP(=O)(Nc1ccccn1)Oc1ccc(Cl)cc1` (stereo unspecified), for which the fold induction was inactive: 1.04.
Take `Cc1cccc(C)c1OP(C)(=O)Nc1ccc(SC(F)(F)F)cc1` (stereo unspecified): the fold induction was inactive: 0.82.
As for `CP(=O)(Nc1ccc(SC(F)(F)F)cc1)Oc1ccc(Cl)cc1` (stereo unspecified), the fold induction was inactive: 1.09.
As to `CP(=O)(Oc1ccccc1)OC(c1ccccc1)C(F)(F)F` (stereo unspecified), the fold induction is inactive: 0.86.
The result for `CCc1ccc(OP(C)(=O)N2CCN(c3ccc([N+](=O)[O-])cc3)CC2)cc1` (stereo unspecified) reads inactive: 1.09; that for `CP(=O)(NC(=O)Nc1ccccc1)Oc1ccccc1` (stereo unspecified), inactive: 1.03; that for `Cc1cc(C)cc(OP(C)(=O)Nc2ccc(SC(F)(F)F)cc2)c1` (stereo unspecified), inactive: 1.04.
Take `CCN(CC)CCCOC(=O)C(O)(c1ccccc1)c1ccccc1`: the fold induction is inactive: 1.04.
As to `COc1ccccc1OP(C)(=O)Nc1ccc(C)cc1` (stereo unspecified), the fold induction was inactive: 1.09.
For `CCOC(=O)c1ccc(NP(C)(=O)Oc2ccccc2)cc1` (stereo unspecified) the value was inactive: 1.06.
The result for `Cc1cc(C)cc(OP(C)(N)=O)c1` (stereo unspecified) reads inactive: 1.02.
Regarding `COc1ccccc1OP(C)(=O)Nc1cc(Cl)ccc1C` (stereo unspecified), the fold induction is inactive: 1.18.
The result for `O=[N+]([O-])c1ccc2c(c1)C=Nc1ccccc1O2` reads inactive: 0.85; that for `CC(C)(C)c1ccc(OP(C)(=O)Nc2ccc(SC(F)(F)F)cc2)cc1` (stereo unspecified), inactive: 1.04.
The result for `Cc1cccc(C)c1OP(C)(N)=O` (stereo unspecified) reads inactive: 1; that for `CC1=NCCc2c1[nH]c1ccccc21.O=[N+]([O-])c1cc([N+](=O)[O-])c(O)c([N+](=O)[O-])c1`, inactive: 1.14; that for `O=C(O)c1cccc(Nc2c([N+](=O)[O-])cc([N+](=O)[O-])cc2[N+](=O)[O-])c1`, inactive: 1.2.
For `Cc1ccc(C)c(NP(C)(=O)Oc2ccccc2)c1` (stereo unspecified) the value was inactive: 1.12.
`CP(=O)(Nc1cccc(Br)c1)Oc1ccccc1` (stereo unspecified): the fold induction is inactive: 0.98.
The result for `Cc1cc(C)cc(OP(C)(=O)Nc2ccccn2)c1` (stereo unspecified) reads inactive: 1.06; that for `COc1ccccc1OP(C)(=O)Nc1cccc(Br)c1` (stereo unspecified), inactive: 0.99.
The result for `CCOC(=O)c1ccc(NP(C)(=O)Oc2cc(C)cc(C)c2)cc1` (stereo unspecified) reads inactive: 0.97; that for `Cc1cc(C)cc(OP(C)(=O)Nc2ccc(C)cc2C)c1` (stereo unspecified), inactive: 0.95; that for `Cc1nc2ccc3ccccc3c2s1.O=[N+]([O-])c1cc([N+](=O)[O-])c(O)c([N+](=O)[O-])c1`, inactive: 0.97.
For `O=[N+]([O-])c1cc([N+](=O)[O-])c(-n2nnc3ccccc32)c([N+](=O)[O-])c1` the value was inactive: 1.13.
Consider `COc1ccccc1OP(C)(=O)Nc1c(C)cccc1C` (stereo unspecified), for which the fold induction was inactive: 1.
Take `CN1CCCCC1COC(=O)C1(O)c2ccccc2CCc2ccccc21` (stereo unspecified): the fold induction is inactive: 0.84.
For `CP(=O)(Nc1ccc(SC(F)(F)F)cc1)Oc1ccccc1` (stereo unspecified) the value was inactive: 0.98; for `CCCOc1ccc(NP(C)(=O)Oc2ccc(Cl)cc2)cc1` (stereo unspecified), inactive: 0.94.
For `CCOC(=O)C(CC)C1=NC(C)(C)Cc2ccccc21.O=[N+]([O-])c1cc([N+](=O)[O-])c(O)c([N+](=O)[O-])c1` (stereo unspecified), the fold induction was inactive: 1.09.
The result for `O=[N+]([O-])c1ccc(OP2(=O)COCCO2)cc1` (stereo unspecified) reads inactive: 1.05; that for `O=[N+]([O-])c1cc([N+](=O)[O-])c(NCC2CCS(=O)(=O)C2)c([N+](=O)[O-])c1` (stereo unspecified), inactive: 1.08.
For `Cc1cc(-c2cccc3ccccc23)c(C)cn1.O=[N+]([O-])c1cc([N+](=O)[O-])c(O)c([N+](=O)[O-])c1`, the fold induction is inactive: 1.03.
For `COc1ccc(OP(C)(=O)Nc2cccc(Br)c2)cc1` (stereo unspecified) the value was inactive: 0.93; for `CN(C)CCOC(=O)C(O)(c1ccccc1)C1CCCCC1` (stereo unspecified), inactive: 0.99; for `COc1ccc(NP(C)(=O)Oc2ccccc2OC)cc1` (stereo unspecified), inactive: 1.02.
For `CP(=O)(Nc1ccc2c(c1)OCCO2)Oc1ccccc1` (stereo unspecified), the fold induction is inactive: 1.02.
The result for `Cc1ccccc1NP(C)(=O)Nc1ccccc1C` reads inactive: 1.14.
For `CP(=O)(Nc1ccc(SC(F)(F)F)cc1)Oc1ccc(F)cc1` (stereo unspecified) the value was inactive: 1.06; for `CCOP(C)(=S)SCC(=O)NC(C)(CC)C(=O)O` (stereo unspecified), inactive: 0.99.
The result for `O=C(OC1CN2CCC1CC2)c1ccc([N+](=O)[O-])cc1` (stereo unspecified) reads inactive: 1.06.
With `O=C(OCCN1CCN(CCOCc2ccccc2)CC1)C(O)(c1ccccc1)c1ccccc1`, the fold induction is inactive: 0.93.
With `COc1ccc2c(c1O)-c1c(O)c(OC)cc3c1[C@H](C2)[N+](C)(C)CC3.O=[N+]([O-])c1cc([N+](=O)[O-])c([O-])c([N+](=O)[O-])c1[O-]`, the fold induction was inactive: 1.15.
The result for `CP(=O)(Nc1ccccc1F)Oc1ccccc1` (stereo unspecified) reads inactive: 0.99; that for `CC(C)c1ccc(OP(C)(=O)Nc2ccc(SC(F)(F)F)cc2)cc1` (stereo unspecified), inactive: 1.02.
For `CCN(CC)CCCOC(=O)C(O)(c1ccccc1)C1CCCCC1` (stereo unspecified) the value was inactive: 1; for `CP(=O)(Nc1ccccc1)Oc1ccc(F)cc1` (stereo unspecified), inactive: 1.08; for `CCCCCOc1ccc(NP(C)(=O)Oc2ccc(Cl)cc2Cl)cc1` (stereo unspecified), inactive: 1.02.
The result for `CCOC(=O)c1ccc(NP(C)(=O)Oc2ccc(F)cc2)cc1` (stereo unspecified) reads inactive: 1.11; that for `COc1ccc(OP(C)(=O)Nc2ccc(SC(F)(F)F)cc2)cc1` (stereo unspecified), inactive: 0.87; that for `Cc1nc2ccc3ccccc3c2o1.O=[N+]([O-])c1cc([N+](=O)[O-])c(O)c([N+](=O)[O-])c1`, inactive: 1.2.
As for `CP(=O)(OCCOc1ccccc1)OCCOc1ccccc1`, the fold induction is inactive: 0.92.
For `CP(=O)(Nc1ccc(Cl)cc1Cl)Oc1ccccc1` (stereo unspecified) the value was inactive: 0.87; for `Cc1cc(C)cc(OP(C)(=O)Nc2cccc(C(F)(F)F)c2)c1` (stereo unspecified), inactive: 1.06; for `COc1ccccc1OP(C)(=O)Nc1ccc(C)c(C)c1` (stereo unspecified), inactive: 0.947.
For `COc1ccc(OP(C)(=O)Nc2ccccc2Br)cc1` (stereo unspecified) the value was inactive: 0.75; for `O=[N+]([O-])c1cc([N+](=O)[O-])c(Nc2ccccn2)c([N+](=O)[O-])c1`, inactive: 1.17; for `Cc1c(NP(C)(=O)Oc2ccc(C(C)C)cc2)c(=O)n(-c2ccccc2)n1C` (stereo unspecified), inactive: 0.89.
The result for `CP(=O)(Nc1ccccn1)Oc1ccccc1` (stereo unspecified) reads inactive: 0.98.
Regarding `COc1ccccc1OP(C)(=O)Nc1ccc(C)cc1C` (stereo unspecified), the fold induction is inactive: 1.12.
Regarding `CCc1ccc(OP(C)(=O)O)cc1`, the fold induction was inactive: 1.12.
For `COc1ccccc1OP(C)(=O)Nc1ccc(Br)cc1` (stereo unspecified), the fold induction is inactive: 1.13.
Regarding `COc1ccc(OP(C)(=O)Nc2ccccn2)cc1` (stereo unspecified), the fold induction is inactive: 0.88.
For `CN(C)CCOC(=O)C(O)(c1ccccc1)C1CCCC1` (stereo unspecified) the value was inactive: 1.03; for `CC(C)(C)c1ccc(OP(C)(=O)O)cc1`, inactive: 0.99; for `COc1ccccc1OP(C)(=O)Nc1ccccc1Br` (stereo unspecified), inactive: 0.95.
The result for `CP(=O)(Nc1ccc(Cl)cc1)Oc1ccc(F)cc1` (stereo unspecified) reads inactive: 1.04; that for `CN(C)C(=O)c1c([N+](=O)[O-])cc([N+](=O)[O-])cc1[N+](=O)[O-]`, inactive: 1.
For `CCN(CC)CC(O)COC(=O)C(O)(c1ccccc1)C1CCCCC1` (stereo unspecified) the value was inactive: 1.11.
Regarding `COc1ccc(OP(C)(=O)Nc2ccc(Br)cc2)cc1` (stereo unspecified), the fold induction was inactive: 0.85.
Take `COc1ccccc1OP(C)(=O)Nc1c(C)n(C)n(-c2ccccc2)c1=O` (stereo unspecified): the fold induction was inactive: 1.03.
`O=C(OCCCN1CCCC1)C(O)(c1ccccc1)C1CCCCC1` (stereo unspecified): the fold induction is inactive: 1.
With `CP(=O)(Oc1ccccc1)N1CCOC1=O` (stereo unspecified), the fold induction was inactive: 1.06.
For `CCc1ccc(OP(C)(=O)Nc2cccnc2)cc1` (stereo unspecified), the fold induction is inactive: 1.05.
For `CCOC(=O)c1ccc(NP(C)(=O)Oc2ccc(Cl)cc2)cc1` (stereo unspecified) the value was inactive: 0.81.
The result for `CP(=O)(OC12CC3CC(CC(C3)C1)C2)OC12CC3CC(CC(C3)C1)C2` reads inactive: 0.88.
